What was measured:
[1] = Efficacy of treatment against soman poisoning in mice; details: with atropine and benactyzine, pyridostigmine pretreatment
[2] = Efficacy of treatment against sarin poisoning in mice; details: with atropine and benactyzine
[3] = Efficacy of treatment against VX poisoning in mice; details: with atropine and benactyzine

Row | SMILES | antidotal activity in the treatment of soman poisoning, compared to TMB-4 [1] | antidotal activity against sarin, compared to TMB-4 [2] | treatment against VX, compared to TMB-4 [3]
1 | O=C1C[N+]2(COC[n+]3ccccc3C=NO)CCC1CC2 | superior to TMB-4 | comparable to TMB-4 | –
2 | CC(=O)OC1C[N+]2(COC[n+]3ccccc3C=NO)CCC1CC2 (stereo not drawn) | superior to TMB-4 | – | –
3 | O=C1C[N+]2(COC[n+]3ccc(C=NO)cc3)CCC1CC2 | superior to TMB-4 | comparable to TMB-4 | slightly better than TMB-4

— patent US4675326A, “Bisquaternary antidotes” (dated 1987)
